From the NIST ThermoML archive (doi:10.1016/j.jct.2011.11.021)
Numbers after ± are expanded uncertainties.

Experiment: activity coefficient (dimensionless); of the first substance listed, at infinite dilution; xn = mol fraction of the nth substance listed
Conditions: Liquid, Chromatography, x1 = 0

CCCCOCCCC [dibutyl ether] + COCC[N+]1(C)CCOCC1.O=S(=O)([N-]S(=O)(=O)C(F)(F)F)C(F)(F)F
Conditions | activity coefficient
318.15 K | 26.8 ± 1.8
328.15 K | 24.9 ± 1.7
338.15 K | 23.3 ± 1.6
348.15 K | 21.8 ± 1.5
358.15 K | 20.4 ± 1.4
368.15 K | 19.2 ± 1.3
